This passage reports Tmax results from ChEMBL document CHEMBL1671633, “Repeated administration of high-dose intermittent rifapentine reduces rifapentine and moxifloxacin plasma concentrations” (Antimicrob Agents Chemother, 2008).

The subject of the series is Homo sapiens. Kind of series: Tmax in healthy human assessed as 25-desacetyl-rifapentine level at 900 mg, po thrice weekly measured on day 19 post compound dose by HPLC. To be noted: in vivo. The series is classed as ADME, organism-based.

Regarding `COc1c(N2C[C@@H]3CCCN[C@@H]3C2)c(F)cc2c(=O)c(C(=O)O)cn(C3CC3)c12` [MOXIFLOXACIN], the Tmax – broadly, the time at which the peak concentration occurs – is 10.8 h.
